The entries are a selection whose mix differs from that of the whole data set. Results filed as inconclusive are left out. Calls of active or inactive are those of the source. Calls follow the shape of the dose curve; as a rule, active = well fitted inhibition curve with a large enough effect; inconclusive = small, poorly fitted or top-dose-only effect; inactive = no such curve, though single readings can be large or run the other way.
biological target: Rap guanine nucleotide exchange factor 3 (Homo sapiens) (UniProt O95398); assay: qHTS for Antagonist of cAMP-regulated guanine nucleotide exchange factor 3 (EPAC1): primary screen; conditions: EPAC1 GEF assay, Rap1b-BODIPY-GDP exchange fluorescence; at 115 µM (top of the series);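 also: plate controls were vehicle for no effect and positive control for full effect; nearly all actives have a fitted effect of over 50% in size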
Source text: In multi-cellular eukaryotic organisms, the effects of cAMP are transduced by two ubiquitously-expressed intracellular cAMP receptors, the classic protein kinase A/cAMP-dependent protein kinase (PKA/cAPK) and the more recently discovered exchange protein directly activated by cAMP/cAMP-regulated guanine nucleotide exchange factor (EPAC/cAMP-GEF). Both PKA and EPAC are ubiquitously expressed in all tissues, and an increase in intracellular cAMP levels will lead to the activation of both PKA and EPAC. Therefore, careful dissections of the individual role and relative contribution of EPAC and PKA within the overall cAMP signaling in various model systems are critical for further elucidating the mechanism of cAMP signaling. To date no EPAC-specific antagonists and agonist, as well as isoform-specific agonists have been reported, and developing EPAC-specific pharmacological probes to determine the physiological functions that EPAC play in the overall cAMP-mediated signaling remains a major challenge within the research field. Furthermore, identified regulators of EPAC may lead to new mechanism-based therapeutic strategies specifically targeting the EPAC / cAMP-signaling components as EPAC has been implicated to play important roles in major human pathological conditions such as diabetes, heart disease, and cancer. This qHTS will be used to screen the Molecular Libraries Small Molecule Repository (MLSMR) as a concentration-titration series using the NCGC unique quantitative screening (qHTS) platform to find inhibitors for EPAC1. In addition, this assay will also be used as a counterscreen for the EPAC2 qHTS. This fluorescent based assay is developed and validated for EPAC1 that measures exchange using EPAC effector Rap1 complex with BODIPY-GDP, a GDP analog with a tethered fluorophores. Inhibitors are identified by monitoring the change in fluorescence signal as the exchanged free BODIPY-GDP has a reduced fluorescence compared to Rap1-bound BODIPY-GDP. Decrease in signal (inhibition) is the desired outcome for the EPAC1 antagonist while no activity in this assay is desired for the EPAC2 antagonist counterscreen. de Rooij, J., Zwartkruis, F. J., Verheijen, M. H., Cool, R. H., Nijman, S. M., Wittinghofer, A., and Bos, J.L. (1998) Nature 396, 474-477 [2] Kawasaki, H., Springett, G. M., Mochizuki, N., Toki, S., Nakaya, M., Matsuda, M., Housman, D. E., and Graybiel, A. M. (1998) Science 282, 2275-2279 NIH Chemical Genomics Center [NCGC] NIH Molecular Libraries Probe Centers Network [MLPCN] MLPCN Grant: NS066510 Assay Submitter (PI): Xiaodong Cheng, The University of Texas, Medical Branch
Briefly, three uL of reagents (100 nM EPAC1, 250 nM RAP1B-BODIPY-GDP, 50 uM GDP) were dispensed into a 1536-well Greiner black solid-bottom medium binding assay plate. Controls and test compounds (23 nL) were transferred to the plate via a Kalypsys pin tool equipped with a 1536-pin array. The plates were centrifuged at 1,000 rpm for 15 seconds followed by 5 minute incubation at room temperature. The assay plates were read at 5 minute intervals for 30 minutes in the ViewLux plate reader using 480nm excitation and 540nm emission filters. The results were normalized to the […] positive control ATA and DMSO.

The chains behind the UniProt entries cited, without tags or fusion partners. Where a name states a change or a piece, a line headed by the entry shows the natural chain unless it says otherwise.
UniProt O95398: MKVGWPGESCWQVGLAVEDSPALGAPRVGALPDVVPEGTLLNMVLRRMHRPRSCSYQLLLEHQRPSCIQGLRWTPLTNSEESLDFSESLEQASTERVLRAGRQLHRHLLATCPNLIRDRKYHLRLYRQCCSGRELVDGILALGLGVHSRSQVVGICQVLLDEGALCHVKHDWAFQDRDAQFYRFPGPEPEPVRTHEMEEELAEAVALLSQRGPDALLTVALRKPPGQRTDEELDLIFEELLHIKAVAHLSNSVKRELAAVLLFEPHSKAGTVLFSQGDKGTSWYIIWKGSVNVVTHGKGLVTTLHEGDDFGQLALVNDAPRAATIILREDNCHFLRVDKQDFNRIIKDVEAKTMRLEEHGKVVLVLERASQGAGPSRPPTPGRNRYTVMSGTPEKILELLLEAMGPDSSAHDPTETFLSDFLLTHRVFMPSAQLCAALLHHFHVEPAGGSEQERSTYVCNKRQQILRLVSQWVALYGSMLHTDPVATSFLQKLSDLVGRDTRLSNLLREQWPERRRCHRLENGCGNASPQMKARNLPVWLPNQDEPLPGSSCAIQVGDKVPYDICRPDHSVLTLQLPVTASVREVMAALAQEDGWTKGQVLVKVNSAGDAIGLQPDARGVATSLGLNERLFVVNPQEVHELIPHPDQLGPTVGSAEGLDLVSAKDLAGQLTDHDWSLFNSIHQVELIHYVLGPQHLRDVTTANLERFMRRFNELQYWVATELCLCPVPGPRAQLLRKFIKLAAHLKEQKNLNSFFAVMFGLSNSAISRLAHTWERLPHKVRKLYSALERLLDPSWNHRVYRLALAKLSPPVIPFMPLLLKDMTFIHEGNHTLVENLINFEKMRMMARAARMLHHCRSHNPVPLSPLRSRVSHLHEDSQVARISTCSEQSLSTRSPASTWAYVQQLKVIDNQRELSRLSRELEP

Structure (SMILES)	activity change, negative = inhibition
COc1cc(C2NCCC3(OCCO3)C2(C)C)cc(OC)c1OC (stereo not drawn)	inactive: 2.87%
CCOP(=O)(Nc1cccc2ccccc12)OCC	inactive: -11.3%
O=C(OC1CN2CCC1CC2)c1ccc(Cl)cc1 (stereo not drawn)	inactive: -4.97%
COc1cc(C(=O)NCC2(N3CCOCC3)CCCCC2)cc(Cl)c1OC(C)C	inactive: -11.8%
O=[As](O)(O)c1cccnc1	inactive: -28.4%
CS(=O)(=O)c1ccc(Cl)c(NC(=O)COC(=O)C(O)(c2ccccc2)c2ccccc2)c1	inactive: -7.34%
O=[As](O)(c1cccc(O)c1)c1cccc(O)c1	inactive: -3.71%
Cc1cccc(OCC(=O)OC2CN3CCC2CC3)c1 (stereo not drawn)	inactive: 5.35%
NC(=O)Nc1ccc([As](=O)(O)O)cc1	inactive: -2.54%
N#CCCN(C(=O)COC(=O)C(O)(c1ccccc1)c1ccccc1)c1ccc(F)cc1	inactive: -3.93%
CN(C(=O)Cc1ccccc1)[C@@H]1CC[C@]2(CCCO2)C[C@H]1N1CCCC1	inactive: -17%
CN(C)C(=O)c1cc([N+](=O)[O-])cc2c1-c1c(cc([N+](=O)[O-])cc1[N+](=O)[O-])C2=O	inactive: 1.66%
O=[N+]([O-])c1ccc2c(c1)nnn2O	inactive: 0.0678%
CN(C(=O)Cc1ccc(Cl)c(Cl)c1)[C@H]1CC[C@@]2(CCCO2)C[C@@H]1N1CCCC1	inactive: -0.237%
CCOP1(=S)c2c(C)nn(CCC#N)c2N=C(c2ccccc2F)N1C (stereo not drawn)	inactive: -6.98%
O=P(Nc1nccs1)(c1ccccc1)c1nc2ccccc2s1 (stereo not drawn)	inactive: -4.7%
O=P(Nc1nccs1)(Oc1ccccc1)Oc1ccccc1	inactive: -10.3%
CS(=O)(=O)c1cc([N+](=O)[O-])c2no[n+]([O-])c2c1	inactive: 1.73%
O=C(O)COc1ccc([As](=O)(O)O)cc1[N+](=O)[O-]	inactive: -20%
Nc1ccccc1[As](=O)(O)c1ccccc1	inactive: 16.5%
CCC(=O)N1C2C3N(C(=O)CC)C1C1N(C(=O)CC)C(C(N1C(=O)CC)N3C(=O)CC)N2C(=O)CC	inactive: -0.752%
COC(=O)c1cc2c(s1)N=C(c1ccccc1)N(C)P2(=O)N1CCOCC1 (stereo not drawn)	inactive: -7.81%
Cc1ccc(OP(=O)(Nc2ccccn2)Oc2ccc(C)cc2)cc1	inactive: -2.86%
CC(=O)NC(SC(=S)N(CC(C)C)CC(C)C)C(Cl)(Cl)Cl (stereo not drawn)	inactive: -0.11%
Cc1ccccc1OP(=O)(Nc1ccccn1)Oc1ccccc1C	inactive: 9.16%

Structure (SMILES)	activity change, negative = inhibition
CC(NC(=O)COC(=O)C(O)(c1ccccc1)c1ccccc1)c1ccccc1 (stereo not drawn)	inactive: -0.293%
CN(C)C(=O)Oc1noc2ccccc12	inactive: -4.5%
O=c1c2cc([N+](=O)[O-])ccc2[nH]c2c([N+](=O)[O-])cc([N+](=O)[O-])cc12	inactive: -4.3%
c1ccc(-c2nn[nH]n2)c(-c2nn[nH]n2)c1	inactive: -9.77%
Cc1ccc(NP(=O)(Oc2cccc(C)c2)Oc2cccc(C)c2)nc1	inactive: 6.87%
CCNC(=S)/N=C(\N)N[N+](=O)[O-]	inactive: 4.11%
O=P1(N(CCCl)CCCl)OCCC2CCCCN21 (stereo not drawn)	inactive: 4.8%
C[C@@H]1C=CCP(=O)(Oc2ccccc2)O1 (stereo partly drawn)	inactive: -8.65%
C[C@H]1OP(=O)(Oc2ccccc2)C[C@@H]2O[C@@H]21 (stereo partly drawn)	inactive: -17.9%
N#C/C(=C\c1ccc(N(CCBr)CCBr)cc1)C(N)=O	inactive: -0.307%
CC(=O)c1ccc(N2CC2c2ccncc2)cc1 (stereo not drawn)	inactive: 9.43%
COC(=O)C1(C)COP(=O)(NCc2ccccc2)OC1 (stereo not drawn)	inactive: 6.63%
CC(=O)Nc1ccc([As](=O)(O)O)c(O)c1	inactive: -4.04%
CC(=O)Nc1ccc(Oc2c([N+](=O)[O-])cc([N+](=O)[O-])cc2[N+](=O)[O-])cc1	inactive: -19.8%
O=P1(Nc2nc3ccc(Cl)cc3s2)COc2ccccc2O1 (stereo not drawn)	inactive: 7.76%
CCOc1ccc(C2=NCC(CBr)S2)cc1 (stereo not drawn)	inactive: -12.6%
CC(C)(C)C(=O)NC(Sc1ccccc1)C(Cl)(Cl)Cl (stereo not drawn)	inactive: -9.81%
CCc1cc(O)c([N+](=O)[O-])c(C)c1[N+](=O)[O-]	inactive: -0.549%
O=P(Nc1nccs1)(c1ccccc1)c1ccccc1	inactive: 1.93%
CC(C)C(=O)NC(Sc1ccccc1)C(Cl)(Cl)Cl (stereo not drawn)	inactive: -16%
c1nnnn1CCn1cnnn1	inactive: -2.22%
O=[As](O)(c1ccccc1)c1ccc(O)cc1	inactive: 4.67%
O=[N+]([O-])c1ncn(CCn2cnc([N+](=O)[O-])n2)n1	inactive: -0.794%
CC(=O)NC(SC(=S)N(C)C)C(Cl)(Cl)Cl (stereo not drawn)	inactive: -3.77%
O=[N+]([O-])c1ccc(O)c(/C=N/Nc2ccc([N+](=O)[O-])cc2[N+](=O)[O-])c1	inactive: -20.3%

Structure (SMILES)	activity change, negative = inhibition
O=C(OC1CN2CCC1CC2)c1cccc(Cl)c1 (stereo not drawn)	inactive: 0.907%
Nc1ccc([As](=O)(O)c2ccc([N+](=O)[O-])cc2)cc1	inactive: -1.26%
C(Cc1nn[nH]n1)Cc1nn[nH]n1	inactive: -6.88%
CN(C)C1(CNC(=O)c2ccc(Cl)c(S(N)(=O)=O)c2)CCCCC1	inactive: 2.02%
O=P(Nc1ccccn1)(c1ccc(Br)cc1)c1ccc(Br)cc1	inactive: 0.688%
COc1ccc(N)c([N+](=O)[O-])c1[N+](=O)[O-]	inactive: 6.29%
O=P(Nc1nc2ccccc2s1)(c1ccccc1)c1ccccc1	inactive: -22.1%
C[C@H]1OP(=O)(Oc2ccccc2)[C@H](O)[C@H](O)[C@H]1N=[N+]=[N-] (stereo partly drawn)	inactive: 6.69%
O=[N+]([O-])c1ncn(CCn2ncnc2[N+](=O)[O-])n1	inactive: 3.7%
CC(C)(C)C(=O)NC(Sc1ccncn1)C(Cl)(Cl)Cl (stereo not drawn)	inactive: 12.1%
O=C(O)CNc1ccc([As](=O)(O)O)cc1	inactive: 1.59%
O=[N+]([O-])c1cccc(NC2=NCC(CBr)S2)c1 (stereo not drawn)	inactive: -5.6%
COC(=O)C1(C)COP(=O)(Nc2ccccc2)OC1 (stereo not drawn)	inactive: -4.67%
O=P1(N(CCCl)CCCl)OCCCS1 (stereo not drawn)	inactive: 2.4%
O=C(Nc1cc([As](=O)(O)O)ccc1O)c1ccccc1	inactive: -0.623%
CCN(/C(=N/P(=O)(N1CCOCC1)N1CCOCC1)N1CCOCC1)c1ccc(OC)cc1	inactive: 2.16%
Nc1ccc([As](=O)(O)c2ccc(N)cc2)cc1	inactive: -13.1%
c1cc(-c2nn[nH]n2)ccc1-c1nn[nH]n1	inactive: 11.3%
CC1CCN(C(=O)Oc2c(Cl)cc(Cl)c3cccnc23)CC1	inactive: 3.38%
CC(C)=N/N=C(\N)N[N+](=O)[O-]	inactive: 7.88%
CC(C)c1nc(Nc2ccccc2)n(P(=O)(N(C)C)N(C)C)n1	inactive: 11.2%
CN(C)C(=O)OCCc1n(C)cc[n+]1C	inactive: -0.324%
COc1ccc(C2=NCC(CBr)S2)cc1 (stereo not drawn)	inactive: -2%
Cc1ccc(NP(=O)(Oc2ccccc2)Oc2ccccc2)nc1	inactive: -24%
CCc1nc2c(n1)c1c(non1O)c1c2no[n+]1[O-]	inactive: -16.7%

Structure (SMILES)	activity change, negative = inhibition
CC(=O)N1C2C3N(C(C)=O)C1C1N(C(C)=O)C(C(N1C(C)=O)N3C(C)=O)N2C(C)=O	inactive: -8.19%
O=[N+]([O-])c1cccc2n[nH]nc12	inactive: -10.6%
Oc1ccccc1CNc1ccccn1	inactive: 3.05%
O=C(NC(Sc1ccncn1)C(Cl)(Cl)Cl)c1ccccc1 (stereo not drawn)	inactive: 10.1%
CC(C)CC(=O)NC(Sc1ccc(Cl)cc1)C(Cl)(Cl)Cl (stereo not drawn)	inactive: -7.32%
Nc1cc(N)c2nonc2c1[N+](=O)[O-]	inactive: -11.8%
O=[N+]([O-])C1C(O)C(O)C([N+](=O)[O-])C(O)C1O (stereo not drawn)	inactive: 0.997%
Cc1ccc(N/C(=N/P(=O)(N2CCOCC2)N2CCOCC2)N2CCOCC2)cc1	inactive: 0.0174%
NC(=O)c1cc([N+](=O)[O-])cc([N+](=O)[O-])c1N	inactive: -0.982%
Clc1ccc(Cl)c(NC2=NCC(CBr)S2)c1 (stereo not drawn)	inactive: -6.03%
CN1CCCC(OC(=O)C(c2ccccc2)c2ccccc2)C1 (stereo not drawn)	inactive: 6.56%
COc1ccccc1OP(=O)(Nc1ccc(C)cn1)Oc1ccccc1OC	inactive: -17.5%
Cc1ccc(OP(=O)(Nc2nccs2)Oc2ccc(C)cc2)cc1	inactive: -2.95%
Nc1cccc2ccc([As](=O)(O)O)cc12	inactive: 3.49%
CCN(N=Nc1nonc1N)c1nonc1N	inactive: 2.13%
CN(C)P(=O)(N(C)C)n1c(Nc2ccccc2)nnc1-c1ccccc1	inactive: -4.74%
O=P(Nc1nc2ccc(Cl)cc2s1)(c1ccccc1)c1ccccc1	inactive: 3.86%
O=C(O)c1ccccc1[As](=O)(O)O	inactive: -12.3%
CC(=O)Nc1ccc([As](=O)(O)O)cc1	inactive: -7.85%
CCCC1OP(N)(=O)OCC1CC (stereo not drawn)	inactive: 9.88%
CCOP(=O)(Nc1ccccc1)OCC	inactive: 10.3%
Cc1cc(SC(NC(=O)c2ccc(F)cc2)C(Cl)(Cl)Cl)ncn1 (stereo not drawn)	inactive: -3.42%
Cc1ccc(NP(=O)(Oc2ccccc2F)Oc2ccccc2F)nc1	inactive: 11.6%
